According to ChEMBL document CHEMBL1128128, “Relationship between structure and bioavailability in a series of hydroxamate based metalloprotease inhibitors” (Bioorg Med Chem Lett, 1995):

Target: T1, Interstitial collagenase (Homo sapiens, UniProt P03956)
T1 sequence (P03956 whole entry): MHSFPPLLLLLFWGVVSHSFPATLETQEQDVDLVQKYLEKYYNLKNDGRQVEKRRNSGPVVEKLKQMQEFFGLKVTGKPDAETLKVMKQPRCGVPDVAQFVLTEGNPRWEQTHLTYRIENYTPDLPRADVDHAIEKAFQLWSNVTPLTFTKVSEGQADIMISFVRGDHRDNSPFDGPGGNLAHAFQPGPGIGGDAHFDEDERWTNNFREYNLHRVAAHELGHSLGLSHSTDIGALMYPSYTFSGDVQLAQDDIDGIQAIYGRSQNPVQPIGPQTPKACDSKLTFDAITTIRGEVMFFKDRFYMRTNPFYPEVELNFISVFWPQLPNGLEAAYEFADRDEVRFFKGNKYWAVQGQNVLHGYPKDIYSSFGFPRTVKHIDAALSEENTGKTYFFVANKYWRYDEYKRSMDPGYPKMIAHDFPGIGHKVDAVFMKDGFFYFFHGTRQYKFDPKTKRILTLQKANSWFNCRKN
Assay: Evaluated for inhibitory activity against Human fibroblast collagenase (HFC)

- Ki: 6 nM
SMILES: CNC(=O)[C@H](Cc1ccc(OC)cc1)NC(=O)[C@@H](CC(=O)NO)CC(C)C
